Values joined by “and” are separate entries in the source; they are usually repeats but may differ in a detail not shown here. Equal values may be shown once. Only a part is listed here, and it is no random draw. Records with an inconclusive call do not appear. Active and inactive are the calls of the source. Unless noted, the call rests on the fitted dose curve; in most records, active means well fitted curve in the direction sought with a large enough effect; inconclusive means small, poorly fitted or top-dose-only effect, or another doubt; inactive means no such curve, though single readings can be large; an effect the other way counts as inactive or inconclusive.
Legend:
[1] = target: Peroxisome proliferator-activated receptor alpha (Homo sapiens) (UniProt Q07869); test: qHTS assay for small molecule agonists of the peroxisome proliferator-activated receptor alpha (PPARalpha) signaling pathway (AID 651778); conditions: PathHunter PPARalpha complementation, chemiluminescence, 6 h; stronger effect = higher value; further: % of control where 0% means no effect
Outline: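 Chemiluminescence from complemented enzyme reported PPARalpha activation in cells after 6 hr of compound treatment at 37 C. The detection reagent was incubated for 60 min at room temperature, and compounds were scored as agonists.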

The chains behind the UniProt entries cited, without tags or fusion partners.
UniProt Q07869, whole entry: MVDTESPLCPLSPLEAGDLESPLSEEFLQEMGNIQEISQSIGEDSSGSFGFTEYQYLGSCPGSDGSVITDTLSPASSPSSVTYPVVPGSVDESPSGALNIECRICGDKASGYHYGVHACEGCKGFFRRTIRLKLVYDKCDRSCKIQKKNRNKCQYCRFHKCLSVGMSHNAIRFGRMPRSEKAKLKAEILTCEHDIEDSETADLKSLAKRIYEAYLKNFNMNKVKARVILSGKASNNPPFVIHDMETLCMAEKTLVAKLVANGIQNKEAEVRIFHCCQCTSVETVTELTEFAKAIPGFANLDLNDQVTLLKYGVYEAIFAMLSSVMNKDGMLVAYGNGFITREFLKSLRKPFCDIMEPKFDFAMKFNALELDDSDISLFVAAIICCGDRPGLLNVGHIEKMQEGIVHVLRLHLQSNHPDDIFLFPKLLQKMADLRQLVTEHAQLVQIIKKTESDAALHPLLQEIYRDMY
UniProt P51449, whole entry: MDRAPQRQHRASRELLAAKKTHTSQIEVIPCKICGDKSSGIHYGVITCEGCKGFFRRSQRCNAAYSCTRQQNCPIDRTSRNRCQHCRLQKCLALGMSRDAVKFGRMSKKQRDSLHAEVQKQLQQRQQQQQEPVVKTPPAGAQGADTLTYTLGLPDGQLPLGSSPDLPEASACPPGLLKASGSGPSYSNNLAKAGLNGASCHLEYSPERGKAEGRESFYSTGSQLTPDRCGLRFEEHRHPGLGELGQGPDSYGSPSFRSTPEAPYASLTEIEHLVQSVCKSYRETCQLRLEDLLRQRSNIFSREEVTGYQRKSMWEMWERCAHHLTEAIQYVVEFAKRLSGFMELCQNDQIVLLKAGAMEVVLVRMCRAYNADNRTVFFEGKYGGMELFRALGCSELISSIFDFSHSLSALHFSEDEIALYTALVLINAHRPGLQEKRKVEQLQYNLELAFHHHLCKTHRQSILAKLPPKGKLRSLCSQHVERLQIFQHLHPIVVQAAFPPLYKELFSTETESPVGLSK

[2] = target: Nuclear receptor ROR-gamma (Homo sapiens) (UniProt P51449); test: qHTS assay for small molecule antagonists of the retinoid-related orphan receptor gamma (ROR-gamma) signaling pathway (AID 651802); conditions: ROR-gamma antagonist cell reporter assay; at 92.2 µM (top of the series);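 further: CHO cells with doxycycline-induced ROR-gamma expression; luciferase reporter luminescence driven by ROR response element; on the % scale 0 is the no-effect control and ±100 the full control effect; nearly all actives have a fitted effect of over 60% in size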
[3] = qHTS assay for small molecule agonists of the antioxidant response element (ARE) signaling pathway measured by Nrf2-dependant transcriptional activity (AID 720636; active means well fitted curve in the direction sought with a large enough effect in the repeat runs; an effect the other way counts as inactive or inconclusive;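 further: HepG2 cells with an ARE-driven luciferase reporter; % of control where 0% means no effect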); conditions: ARE-luc HepG2, Nrf2 luciferase reporter, 16 h; at 92.4 µM (top of the series)
Outline: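 Cells: ARE-luc HepG2 with Nrf2-responsive luciferase. Medium contained 1% dialyzed FBS. Compound exposure lasted 16 hr at 37 C and 5% CO2, followed by ONE-Glo luciferase detection.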

[4] = qHTS assay for small molecule antagonists of the retinoid-related orphan receptor gamma (ROR-gamma) signaling pathway - cell viability counter screen (AID 720652; active means well fitted curve in the direction sought with a large enough effect in the repeat runs; an effect the other way counts as inactive or inconclusive;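 further: CHO reporter cells with doxycycline-induced ROR-gamma expression; compound exposure lasted 16 hr before ATP read; on the % scale 0 is the no-effect control and ±100 the full control effect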); conditions: RORgamma reporter cell line viability counter screen; at 92.2 µM (top of the series)
[5] = qHTS assay for small molecule agonists of the antioxidant response element (ARE) signaling pathway measured by Nrf2-dependant transcriptional activity - cell viability counter screen (AID 720653; active means well fitted curve in the direction sought with a large enough effect in the repeat runs; an effect the other way counts as inactive or inconclusive; further: on the % scale 0 is the no-effect control and ±100 the full control effect); conditions: ARE-bla HepG2 viability, CellTiter-Glo ATP luminescence, 16 h; stronger effect = lower value
Description: National Center for Advancing Translational Sciences [NCATS] NIH Chemical Genomics Center [NCGC] U.S. Environmental Protection Agency [EPA] National Institutes of Environmental Health Sciences [NIEHS] National Toxicology Program [NTP] Assay Overview: Oxidative stress has been implicated in the pathogenesis of a variety of diseases ranging from cancer to neurodegeneration. The antioxidant response element (ARE) signaling pathway plays an important role in the amelioration of oxidative stress. The CellSensor ARE-bla HepG2 cell line (Invitrogen) can be used for analyzing the Nrf2/antioxidant response signaling pathway. Nrf2 (NF-E2-related factor 2) and Nrf1 are transcription factors that bind to AREs and activate these genes. The CellSensor ARE-bla HepG2 cell line contains a beta-lactamase reporter gene under control of the Antioxidant Response Element (ARE) stably integrated into HepG2 cells. The activation of the report gene under culture conditions can be detected by fluorescence intensity. The cytotoxicity of the compounds against the ARE-bla HepG2 cell line was quantified by measuring the intracellular ATP content.
Assay Protocol Summary: ARE-bla HepG2 cells were dispensed at 2,000 cells/5 ul/well in 1536-well black wall/clear bottom plates using a Multidrop Combi (ThermoFisher Scientific, Waltham, MA) dispenser. After the assay plates were incubated at 37C/5% CO2 for 5 hrs, 23 nL of compounds dissolved in DMSO, positive controls or DMSO only was transferred to the assay plate by a pintool work station (Kalypsys, San Diego, CA). The plates were incubated at 37C/5% CO2 for 16 hrs. […] The fluorescence intensity was measured by an Envision (PerkinElmer, Shelton, CT) plate reader. Cell viability using CellTiter Glo viability assay (Promega, Madison, WI) was also measured by adding 4 ul/well of CellTiter-Glo reagent into the same assay plate using a FRD. After 30 min incubation at room temperature, the luminescence intensity in the plates was measured using a ViewLux (PerkinElmer) plate reader.

[6] = qHTS assay for cell viability of HEK293 cells (AID 743288); conditions: ATP luminescence (CellTiter-Glo), 18 h, stronger effect = lower value; further: on the % scale 0 is the no-effect control and ±100 the full control effect; nearly all actives have a fitted effect of over 50% in size
Outline: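 Readout is luciferase-coupled ATP content (CellTiter-Glo luminescence, 30 min room temperature) as a measure of metabolically competent cells. Parental HEK293 cells were plated 5 h or more before compound addition, then treated 18 h at 37 C.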

[7] = qHTS assay for cell viability of the p53RE-bla HCT-116 cell line (AID 743292); conditions: p53RE-bla HCT-116 viability, ATP luminescence, 16 h; at 95 µM (top of the series); further: on the % scale 0 is the no-effect control and ±100 the full control effect; nearly all actives have a fitted effect of over 55% in size
Outline: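 HCT-116 p53RE-bla cells seeded 4,000/well; 5 h at 37 C; compound (DMSO) added; 16 h at 37 C; CellTiter-Glo added, 30 min RT; luminescence read.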

[8] = High-throughput drug toxicity screening in the BPDCN cell line Gen2.2 (AID 1224824; call rule not given here;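 further: cells exposed to compounds for 48 h before reading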); conditions: Gen2.2 BPDCN cells; at 45.8 µM (top of the series)
Description: (§1) Blastic plasmacytoid dendritic cell neoplasm (BPDCN) is a rare, aggressive and largely incurable hematologic malignancy originating from plasmacytoid dendritic cells (pDCs). Although an initial response to chemotherapy is common, BPDCN prognosis is extremely poor and most patients relapse with drug-resistant disease leading to a median overall survival of ~1 year after diagnosis. To explore novel potential therapeutic strategies in BPDCN, we performed a high-throughput drug toxicity screening in BPDCN cell liens, using of a library of 1,912 small molecules, enriched for compounds that are either approved or in early stages of development for cancer therapy.
(§2) A total of 500 exponentially growing Gen2.2 cells were seeded per well in 5 uL of media (RPMI + Glutamine, without phenol red plus10% FBS and 1X Pen/Strep) into 1536-well solid white high base tissue culture treated Greiner One Bio Plates (789173-F), using a multidrop combi dispenser and a small sterile cassette. […] The plates were then spun at 1000 rpms to remove bubbles and incubated for 15 minutes at room temperature before reading on a ViewLux using a luminescent filter with a 10 second exposure. The relative luciferase units were used to calculated percent activity using DMSO as 100% and Bortezomib as 0%.

[9] = High-throughput drug toxicity screening in the BPDCN cell line Cal-1 (AID 1224825; call rule not given here); conditions: Cal-1 BPDCN cell viability, qHTS; at 45.8 µM (top of the series)
Description: as §1
as §2, with “Cal-1” for “Gen2.2”

[10] = qHTS Screen of the MIPE 4.0 Collection Against Ewings Sarcoma (RDES) (AID 1259252); conditions: RD-ES Ewing sarcoma viability, CellTiter-Glo, 48 h; at 45.8 µM (top of the series);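 further: 100% = DMSO-treated cells and 0% = medium-only wells without cells; nearly all actives have a fitted effect of over 35% in size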
Outline: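 Cells plated in serum-containing RPMI (5% FBS) and treated with compound dilutions for 48 h. Readout luminescent viability; normalization relied on vehicle (no inhibition) and media-only columns (full inhibition).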

Compound | max response [1] | activity change, negative = inhibition [2] | activation [3] | activity change, negative = cytotoxicity [4] | max response [5] | max response [6] | activity change, negative = cytotoxicity [7] | cell viability, % of control (lower = more cytotoxic) [8] | viability (% of control) [9] | viability (percent of control) [10]
ClCCOP(OCCCl)OCCCl | inactive: -1.52% | inactive: -20% | inactive: -0.0969% | inactive: 15.6% | inactive: 2.92% | inactive: 1.02% | inactive: -4.13% |  |  | 
CCOC(=O)C(=O)CBr |  |  |  |  |  |  |  | 116% | 87.3% | inactive: 120%
CCOP(=O)(Cl)Cl | inactive: -3.97% and inactive: -0.121% | inactive: 15.3% | inactive: -0.0421% and inactive: 0.0101% | inactive: 2.8% | inactive: -7.33% and inactive: 7.4% | inactive: 1.06% and inactive: -3.46% | inactive: 7.13% and inactive: 6.26% |  |  | 
O=[N+]([O-])c1ccccc1[N+](=O)[O-] | inactive: 0.978% |  |  |  | inactive: 5.72% | inactive: -5.55% | inactive: -4.04% |  |  | 

Reference: PubChem BioAssay (NCATS)
